The record followed here is PubChem BioAssay (Tox21).

This is a selection; strong and weak results do not stand in their true shares. Inconclusive results are not listed. Active and inactive are the calls of the source. The call rests on the fitted dose curve; in most records, active means well fitted inhibition curve with a large enough effect in the repeat runs; inconclusive means weak or mixed curves, or effect the other way; inactive means no such curve, though single readings can be large or run the other way.
On the % scale 0 is the no-effect control and ±100 the full control effect.

One assay is described as follows: qHTS assay to identify small molecule antagonists of the retinoic acid receptor (RAR) signaling pathway (AID 1159552; further: nearly all actives have a fitted effect of over 50% in size). The following applies: C3RL4 RARE luciferase reporter, retinol-stimulated, 6 h; at 19 µM (top of the series). The source says:
National Center for Advancing Translational Sciences [NCATS]
NIH Chemical Genomics Center [NCGC]
U.S. Environmental Protection Agency [EPA]
National Institutes of Environmental Health Sciences [NIEHS]
National Toxicology Program [NTP]
U.S. Food and Drug Administration [FDA]
All-trans Retinoic acid (atRA) is the potent natural metabolite of retinol and plays an important role in normal embryonic development and maintenance of cellular phenotype in adult animals. atRA is the activating ligand for the retinoic acid receptors (RARs) which form heterodimers with retinoid X receptors (RXRs) on the retinoic acid response element (RARE). Through activation of the RAR/RXRs nuclear receptors, atRA regulates the transcription of a large number of protein-coding genes and regulatory RNAs. Intracellular levels of atRA are controlled by the retinol signaling pathway (RSP) that regulates the biosynthesis and catabolism of atRA to maintain physiological levels. Chemicals that interfere with the RSP can cause abnormal intracellular levels of atRA and therefore are potential developmental toxicants. To assess compounds for the potential adverse effect on embryonic development through interfering with retinol signaling, a cell-based RARE luciferase reporter gene assay was used. C3RL4 cell line (OARSA/CFSAN/FDA, Laurel, MD) was used to screen Tox21 10K compound library for identifying inhibitors of the RSP.
Tox21 Assay Protocol Summary:
C3RL4 cells were seeded at 1,000/well in 4 uL of assay medium into white solid 1,536-well tissue culture plates (Greiner Bio-One North America Inc. Monroe, NC) using a Multidrop Combi (Thermo Scientific, Waltham, MA) dispenser. After incubation at 37 C and 5% CO2 for an overnight, 23 nL of compounds dissolved in DMSO, positive control or DMSO only were transferred by a Pintool station (Kalypsys, San Diego, CA). One ul of 1 uM (final concentration) of Retinol was added right after the compound addition by using a Flying Reagent Dispenser (FRD) (Aurora Discovery, San Diego, CA). After 6 hr incubation at 37 C and 5% CO2, 5 uL of Amplite Luciferase reagent (AAT Bioquest Inc. Sunnyvale, CA) was added to each assay plate using an FRD. Luminescence was quantified on a ViewLux plate reader (PerkinElmer, Waltham, MA) after 30 min incubation at room temperature.
With `CCC(C)(OOC(C)(C)C)OOC(C)(C)C`, the activity, negative = inhibition is inactive: 6.6%.

The same assay, now with this note: C3RL4 RARE luciferase reporter, retinol-stimulated, 6 h; at 42.5 µM (top of the series).
Turning to `NC(=O)Nc1ccc([As](=O)(O)O)cc1`, the activity, negative = inhibition was inactive: 0.99%.

Regarding `CN(C(=O)Cc1ccc(Cl)c(Cl)c1)[C@H]1CC[C@@]2(CCCO2)C[C@@H]1N1CCCC1`, the activity, negative = inhibition is inactive: -3.16%.

Turning to `CN(C(=O)Cc1ccccc1)[C@H]1CC[C@@]2(CCCO2)C[C@@H]1N1CCCC1`, the activity, negative = inhibition is inactive: 9.58%.

Still in this assay, the particulars now being: C3RL4 RARE luciferase reporter, retinol-stimulated, 6 h; at 92.4 µM (top of the series).
With `CC(C)CCCCCCCOP(OCCCCCCCC(C)C)Oc1ccccc1`, the activity, negative = inhibition is inactive: 1.11%.

In the case of `O=C(Cl)Oc1ccccc1`, the activity, negative = inhibition is inactive: -7.34%.

In the case of `CCNC(C)Cc1ccc2c(c1)OCO2` (centres undefined), the activity, negative = inhibition is inactive: 10.8%.

With `O=[P+](Oc1ccccc1)Oc1ccccc1`, the activity, negative = inhibition was inactive: 17.1%.

With `CCCCOP(OCCCC)OCCCC`, the activity, negative = inhibition is inactive: -5.93%.

`ClP(Cl)c1ccccc1`: the activity, negative = inhibition is inactive: -2.25%.

Turning to `O=[p+]1oc2ccccc2c2ccccc21` (centres undefined), the activity, negative = inhibition was inactive: 14%.

For `COP(=S)(Cl)OC`, the activity, negative = inhibition is inactive: -1.36%.

For `CCOC(=O)Cl`, the activity, negative = inhibition is inactive: -3.74%.

For the molecule `CN(C(=O)Cc1cccc2occc12)[C@H]1CC[C@@]2(CCCO2)C[C@@H]1N1CCCC1`, the activity, negative = inhibition was inactive: -12.7%.

Regarding `NC(=O)Nc1ccc([As](=O)(O)O)cc1`, the activity, negative = inhibition was inactive: -0.681%.

As for `CN(N=O)C(=N)N[N+](=O)[O-]`, the activity, negative = inhibition was inactive: 12.1%.

In the case of `CCOP(=S)(CC)Sc1ccccc1` (centres undefined), the activity, negative = inhibition is inactive: -17%.

As to `CCCCC(CC)CO[P+](=O)OCC(CC)CCCC` (centres undefined), the activity, negative = inhibition is inactive: 3.8%.

For the molecule `COC(=O)Cl`, the activity, negative = inhibition is inactive: 21.2%.
